# Measured affinities in a library of Ab-14 light chain variants

Source: Li et al. 2023 (doi:10.1038/s41467-023-39022-2), MIT Lincoln Laboratory and A-Alpha Bio; data file from the FLAb repository.

The target is the same throughout: PDVDLGDISGINAS, from the HR2 region of SARS-CoV-2 spike.

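The parent was found by panning a naive human phage display library on the peptide. Designed CDR sequences, proposed from the first random library and measured here. Several design methods are mixed in this list. The assay is AlphaSeq: two haploid yeast populations carry antibody and antigen on their surface. Mating (16 h, 30 °C) was followed by selection of diploids and sequencing of their barcodes. Scores were corrected for input abundance and mapped to Kd with protein pairs of known affinity run in the same pool. There are six technical replicates.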

Parent: Ab-14, a human scFv built as VH, a 15-residue (Gly4Ser)3 linker, VL. Only the CDRs of the light chain vary.
VH: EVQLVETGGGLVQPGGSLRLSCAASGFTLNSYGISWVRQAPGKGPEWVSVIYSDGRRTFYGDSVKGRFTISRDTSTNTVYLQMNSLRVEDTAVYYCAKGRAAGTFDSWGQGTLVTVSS
VL: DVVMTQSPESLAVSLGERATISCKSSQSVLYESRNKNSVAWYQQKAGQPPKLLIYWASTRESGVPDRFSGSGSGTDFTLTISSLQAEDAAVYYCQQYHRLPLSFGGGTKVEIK

Each variant is given by its three light chain CDRs, as the data file delimits them; those of the parent are KSSQSVLYESRNKNSVA, WASTRES, QQYHRLPLS. The read-out is the apparent dissociation constant on a log10 scale (nM): the lower, the stronger. A mean of the replicates is given; it leaves out those without a signal. A pair that was not seen in any replicate is written "nd"; this usually means weak binding, but a binder can also be missed. The authors' rule: three or more of the six replicates give a measured affinity, fewer mean a poor binder. Values of this round are not directly comparable with the first-round values of the same sequences. Three control strains display no target. For all light chain designs, 4% of the pairings with them gave a signal, with a median of 2.64 and one signal in twenty below 1.59, so weak values seen in few replicates may be background. Also given: how often the same scFv was detected with the empty control strains.

For KSSQSVLNESRNKNSVA | WASTRES | QQYHRLPLS, the assay gave 2.55 (6 of 6 replicates; controls 1 of 18).
For LIMKFMSQDGSARNNIA | GDTKLAQ | QAYYRLPLS, the assay gave nd (0 of 6 replicates; controls 0 of 18).
For KSSQSVLYESRNLIQVA | WASTRES | QSYHRLPLS, the assay gave 1.83 (6 of 6 replicates; controls 0 of 18).
For KIGGTLNMLEHKQNNVA | DLVERGN | QQYFRLPLS, the assay gave -0.29 (6 of 6 replicates; controls 1 of 18).
For HITMGMYVSGRHHSNIA | QAETREK | QQYDRLPLS, the assay gave 0.75 (6 of 6 replicates; controls 0 of 18).
For KARQSQLYESRNQNSVA | NASQRLQ | QQYHRLPLS, the assay gave -0.03 (6 of 6 replicates; controls 0 of 18).
For KSSQSVLYESRNKQSVA | NASTRES | QQYHRLPLS, the assay gave 0.88 (6 of 6 replicates; controls 4 of 18).
For FMQMQNDRMQDAAKNIA | DVDMRET | QQYARLPFM, the assay gave 0.65 (6 of 6 replicates; controls 1 of 18).
For TISQSLLMQTSHKNSVA | GEETRYS | QQYARLPLS, the assay gave 0.20 (6 of 6 replicates; controls 0 of 18).
For TLYGLTNSMSKNKDSVA | EMSTREL | QQYDRLPLA, the assay gave 0.89 (6 of 6 replicates; controls 1 of 18).
For KLRQSTLYESRNSNSVA | NASTRES | QQYHRLPLS, the assay gave -0.21 (6 of 6 replicates; controls 0 of 18).
For MMSQVTALGQRHRNNVA | QTSTRED | QQYDHLPLI, the assay gave 0.67 (6 of 6 replicates; controls 1 of 18).
For KSSMSYLYESRNTNSVA | EASTRES | QQYHRLPLS, the assay gave 0.46 (6 of 6 replicates; controls 0 of 18).
For KISMLTRFQQNAKNNIA | EMNRREA | QQYHRLPLS, the assay gave 0.25 (3 of 6 replicates; controls 0 of 18).
For MISQLYNMGTFTINSVA | QASLRNE | QQYDRLPLM, the assay gave 1.98 (6 of 6 replicates; controls 0 of 18).
For KLDMNELGQSQNSNCVA | SSAQKCS | QQYSRLPLS, the assay gave 1.18 (6 of 6 replicates; controls 2 of 18).
For MIGEMLMAGQYKINSVA | QANLRAE | QHYNRLPLE, the assay gave 0.27 (6 of 6 replicates; controls 2 of 18).
For IIHESYGLMSHKQSSIA | DNSTRED | QQYDRLPLS, the assay gave nd (0 of 6 replicates; controls 1 of 18).
For KSSQSLLYESRNANSVA | WSSTREV | QQYHWLPLS, the assay gave 1.63 (1 of 6 replicates; controls 0 of 18).
For KSSQSVLYESRNKNSVA | EASTRES | QQYHRLPLF, the assay gave 2.11 (3 of 6 replicates; controls 1 of 18).
For SIEWEEWNGQSVKHNIA | ADTQVLE | QQYFRLPFT, the assay gave 0.89 (6 of 6 replicates; controls 1 of 18).
For KLQGFSNNMNDIQNSIA | DESMLHT | QHYWRLPLT, the assay gave 2.48 (4 of 6 replicates; controls 0 of 18).

Further variants, results first:

-0.44 (6 of 6 replicates; controls 0 of 18): KLSQSWLYESRNKNNVA | QASQRES | QQYHRLPLS.
-0.26 (6 of 6 replicates; controls 1 of 18): KLSQEDEYESRNPNSVA | QASERES | QQYHRLPLS.
1.52 (6 of 6 replicates; controls 0 of 18): KIQHKTYFENIGEYSVA | DANTSVD | QYYFRLPLS.
-0.15 (6 of 6 replicates; controls 0 of 18): KISQAYLGEDRNKNSVA | NANQRES | QQYHRLPLS.
0.86 (6 of 6 replicates; controls 3 of 18): NITGMVESKGTTTKNIA | EAEFRCG | QQYSRLPLS.
1.09 (5 of 6 replicates; controls 0 of 18): MINMEVGIEDMKWQAVA | SAHVRAF | QQYGRLPFS.
-0.11 (6 of 6 replicates; controls 0 of 18): KFSQSVAYESRMKNSVA | NASTRES | QQYHRLPLS.
0.72 (6 of 6 replicates; controls 1 of 18): ISSQSVMGEERNKNSVA | AASTREV | QQYHRLPLS.
nd (0 of 6 replicates; controls 0 of 18): KSSQSVLYESRHKNSVA | QASTRES | QQYHRLPES.
2.49 (2 of 6 replicates; controls 2 of 18): KSSFSVRYESRNKNSVA | WASTREY | QQYHRLPLS.
1.46 (6 of 6 replicates; controls 0 of 18): KLSGIMRQESKVSNSIA | EVNERPE | QQYDRLPLS.
nd (0 of 6 replicates; controls 0 of 18): MVSQLMVWGLHAKNSIA | EAEHRCN | QQYDRLPLF.
0.05 (6 of 6 replicates; controls 0 of 18): ASSQSVLFESRNKNSVA | DASTRES | QQYHRLPLS.
-0.17 (6 of 6 replicates; controls 0 of 18): KLSQSVLYEDRNKNSVA | QASTRCS | QQYHRLPLN.
0.39 (6 of 6 replicates; controls 0 of 18): KLMQSWLYESRNKNSVA | NASTRES | QQYHRLPLS.
-0.25 (6 of 6 replicates; controls 2 of 18): KLSQSWLYESRNKNSVA | NASQRLS | QQYHRLPLS.
0.27 (6 of 6 replicates; controls 0 of 18): TISQAAQQESHNKNSVA | DLSVRGS | QQYHRLPLS.
2.42 (6 of 6 replicates; controls 3 of 18): HVSESTFAQSKMRNSVA | ENSTRES | QQYDRLPLS.
0.20 (6 of 6 replicates; controls 0 of 18): KLASVTGTEKVIGNNVA | EMETRER | QQYNRLPLA.
0.34 (6 of 6 replicates; controls 0 of 18): HLSDTVMQGSYYRNSVA | QEETRAD | QQYHHLPLS.
nd (0 of 6 replicates; controls 3 of 18): KLRQVTGYESFNKNSVA | QTETREN | QDYDRLPLS.
nd (0 of 6 replicates; controls 0 of 18): MMLSHMLEVQNIQNAVA | EASMVYD | QQYGSLPLS.
nd (0 of 6 replicates; controls 1 of 18): KSSQSVLCESRNKNSIA | SASTRES | QQGHRLPLS.

The first 6 entries again:

CDR-L1,CDR-L2,CDR-L3,mean log10 Kd (nM),detected,empty controls
KSSQSVLNESRNKNSVA,WASTRES,QQYHRLPLS,2.55,6 of 6,1 of 18
LIMKFMSQDGSARNNIA,GDTKLAQ,QAYYRLPLS,nd,0 of 6,0 of 18
KSSQSVLYESRNLIQVA,WASTRES,QSYHRLPLS,1.83,6 of 6,0 of 18
KIGGTLNMLEHKQNNVA,DLVERGN,QQYFRLPLS,-0.29,6 of 6,1 of 18
HITMGMYVSGRHHSNIA,QAETREK,QQYDRLPLS,0.75,6 of 6,0 of 18
KARQSQLYESRNQNSVA,NASQRLQ,QQYHRLPLS,-0.03,6 of 6,0 of 18